# Measurements from ChEMBL document CHEMBL3436045 (Sci Rep, 2013).
# The chains behind the UniProt entries cited, without tags or fusion partners. Where a name states a change or a piece, a line headed by the entry shows the natural chain unless it says otherwise.
# UniProt Q13698: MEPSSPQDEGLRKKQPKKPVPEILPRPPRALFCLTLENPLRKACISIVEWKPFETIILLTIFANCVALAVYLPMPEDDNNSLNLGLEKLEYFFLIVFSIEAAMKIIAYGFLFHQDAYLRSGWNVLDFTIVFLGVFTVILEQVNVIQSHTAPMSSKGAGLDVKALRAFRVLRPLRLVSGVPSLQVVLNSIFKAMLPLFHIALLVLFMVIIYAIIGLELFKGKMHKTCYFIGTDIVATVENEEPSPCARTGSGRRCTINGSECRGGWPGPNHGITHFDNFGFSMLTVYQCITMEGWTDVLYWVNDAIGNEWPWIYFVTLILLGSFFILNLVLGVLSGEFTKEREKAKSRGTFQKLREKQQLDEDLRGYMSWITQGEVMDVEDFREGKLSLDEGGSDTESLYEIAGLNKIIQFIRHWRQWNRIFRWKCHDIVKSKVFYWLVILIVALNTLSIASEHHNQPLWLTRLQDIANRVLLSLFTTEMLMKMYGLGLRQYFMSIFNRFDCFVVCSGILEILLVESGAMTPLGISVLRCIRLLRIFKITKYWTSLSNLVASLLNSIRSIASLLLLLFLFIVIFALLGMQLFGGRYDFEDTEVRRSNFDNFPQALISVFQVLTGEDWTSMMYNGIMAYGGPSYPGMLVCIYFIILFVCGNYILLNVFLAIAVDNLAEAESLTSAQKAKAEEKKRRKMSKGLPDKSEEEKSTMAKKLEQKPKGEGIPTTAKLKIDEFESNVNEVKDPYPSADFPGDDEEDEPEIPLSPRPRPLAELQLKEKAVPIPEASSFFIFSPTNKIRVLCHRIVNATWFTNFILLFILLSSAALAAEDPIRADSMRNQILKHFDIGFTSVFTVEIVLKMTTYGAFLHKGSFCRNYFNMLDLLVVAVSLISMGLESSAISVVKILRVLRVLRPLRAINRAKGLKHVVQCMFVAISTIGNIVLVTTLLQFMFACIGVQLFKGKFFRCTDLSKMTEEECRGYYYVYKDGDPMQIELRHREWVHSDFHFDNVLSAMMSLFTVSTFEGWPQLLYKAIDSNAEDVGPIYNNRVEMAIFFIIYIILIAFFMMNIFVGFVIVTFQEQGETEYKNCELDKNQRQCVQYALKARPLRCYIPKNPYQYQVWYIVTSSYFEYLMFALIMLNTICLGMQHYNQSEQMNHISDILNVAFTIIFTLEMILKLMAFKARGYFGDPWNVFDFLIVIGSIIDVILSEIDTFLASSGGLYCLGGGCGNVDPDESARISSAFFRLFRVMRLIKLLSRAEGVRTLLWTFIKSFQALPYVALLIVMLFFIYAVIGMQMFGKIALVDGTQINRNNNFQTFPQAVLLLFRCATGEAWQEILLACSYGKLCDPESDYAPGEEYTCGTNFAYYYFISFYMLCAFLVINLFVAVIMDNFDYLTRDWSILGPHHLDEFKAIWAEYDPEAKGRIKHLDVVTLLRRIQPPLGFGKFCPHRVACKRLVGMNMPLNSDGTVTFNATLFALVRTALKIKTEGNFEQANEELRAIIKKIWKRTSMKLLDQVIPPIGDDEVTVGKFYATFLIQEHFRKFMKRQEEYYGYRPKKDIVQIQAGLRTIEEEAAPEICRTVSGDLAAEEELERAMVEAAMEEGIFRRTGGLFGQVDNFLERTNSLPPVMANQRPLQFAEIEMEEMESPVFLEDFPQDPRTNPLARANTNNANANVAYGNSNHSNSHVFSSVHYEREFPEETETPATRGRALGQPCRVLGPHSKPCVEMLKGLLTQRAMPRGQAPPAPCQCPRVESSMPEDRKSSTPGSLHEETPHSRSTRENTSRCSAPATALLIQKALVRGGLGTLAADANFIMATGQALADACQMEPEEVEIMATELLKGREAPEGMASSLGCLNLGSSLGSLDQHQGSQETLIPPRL
# UniProt Q01668: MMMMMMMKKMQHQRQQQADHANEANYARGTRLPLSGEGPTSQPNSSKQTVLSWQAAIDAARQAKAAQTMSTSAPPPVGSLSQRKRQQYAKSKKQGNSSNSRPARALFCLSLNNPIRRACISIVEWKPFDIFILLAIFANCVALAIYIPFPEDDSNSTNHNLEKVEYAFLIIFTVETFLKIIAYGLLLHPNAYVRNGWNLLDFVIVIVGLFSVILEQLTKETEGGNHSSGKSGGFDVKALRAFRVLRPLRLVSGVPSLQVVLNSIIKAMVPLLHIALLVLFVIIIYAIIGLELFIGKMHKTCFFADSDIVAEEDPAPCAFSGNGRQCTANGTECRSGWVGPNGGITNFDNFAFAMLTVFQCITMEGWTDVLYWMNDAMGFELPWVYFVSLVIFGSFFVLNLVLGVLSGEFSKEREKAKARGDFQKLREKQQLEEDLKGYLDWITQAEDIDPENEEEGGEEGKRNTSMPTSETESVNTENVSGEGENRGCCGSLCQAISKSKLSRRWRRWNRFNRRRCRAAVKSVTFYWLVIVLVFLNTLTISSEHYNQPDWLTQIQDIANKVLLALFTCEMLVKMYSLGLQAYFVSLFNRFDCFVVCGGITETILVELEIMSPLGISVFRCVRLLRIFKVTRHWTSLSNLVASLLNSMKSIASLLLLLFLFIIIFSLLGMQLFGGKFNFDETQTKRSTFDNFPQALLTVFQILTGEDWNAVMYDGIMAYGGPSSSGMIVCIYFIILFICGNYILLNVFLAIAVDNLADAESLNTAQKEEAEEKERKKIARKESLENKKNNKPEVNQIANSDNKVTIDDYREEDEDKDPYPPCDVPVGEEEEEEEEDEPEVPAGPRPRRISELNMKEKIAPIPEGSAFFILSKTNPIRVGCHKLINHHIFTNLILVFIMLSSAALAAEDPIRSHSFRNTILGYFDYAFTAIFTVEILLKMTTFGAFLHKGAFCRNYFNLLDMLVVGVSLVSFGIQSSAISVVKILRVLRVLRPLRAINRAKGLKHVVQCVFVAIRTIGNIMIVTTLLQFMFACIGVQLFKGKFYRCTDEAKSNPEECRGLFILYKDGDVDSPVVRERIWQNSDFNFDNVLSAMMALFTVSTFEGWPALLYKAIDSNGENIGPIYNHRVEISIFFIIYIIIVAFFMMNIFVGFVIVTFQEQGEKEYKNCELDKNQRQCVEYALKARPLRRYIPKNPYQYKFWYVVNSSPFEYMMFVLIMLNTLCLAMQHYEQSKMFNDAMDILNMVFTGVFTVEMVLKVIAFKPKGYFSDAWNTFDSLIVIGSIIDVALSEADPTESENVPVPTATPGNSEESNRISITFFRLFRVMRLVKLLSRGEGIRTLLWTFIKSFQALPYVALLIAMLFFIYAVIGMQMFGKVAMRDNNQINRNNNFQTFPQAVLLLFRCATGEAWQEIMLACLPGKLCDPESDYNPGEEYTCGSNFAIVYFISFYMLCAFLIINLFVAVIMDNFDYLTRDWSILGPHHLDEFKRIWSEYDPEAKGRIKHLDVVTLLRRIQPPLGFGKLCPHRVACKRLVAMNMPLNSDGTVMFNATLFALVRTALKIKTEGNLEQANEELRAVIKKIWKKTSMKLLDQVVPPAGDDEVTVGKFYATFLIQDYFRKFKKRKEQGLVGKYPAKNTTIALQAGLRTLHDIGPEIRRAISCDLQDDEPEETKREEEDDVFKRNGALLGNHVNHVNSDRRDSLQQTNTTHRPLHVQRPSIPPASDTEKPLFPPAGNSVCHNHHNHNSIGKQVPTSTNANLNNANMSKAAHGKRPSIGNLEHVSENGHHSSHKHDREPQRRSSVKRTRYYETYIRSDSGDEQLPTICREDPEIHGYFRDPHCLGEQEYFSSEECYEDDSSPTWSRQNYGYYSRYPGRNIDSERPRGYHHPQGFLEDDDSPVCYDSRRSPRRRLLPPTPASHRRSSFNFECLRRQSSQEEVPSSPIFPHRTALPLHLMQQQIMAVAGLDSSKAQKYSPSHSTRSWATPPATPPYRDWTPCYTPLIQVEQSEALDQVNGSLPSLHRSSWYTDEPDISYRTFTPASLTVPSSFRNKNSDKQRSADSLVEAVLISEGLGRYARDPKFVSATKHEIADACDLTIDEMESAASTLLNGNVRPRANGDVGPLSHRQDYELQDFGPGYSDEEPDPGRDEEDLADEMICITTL
# UniProt O60840: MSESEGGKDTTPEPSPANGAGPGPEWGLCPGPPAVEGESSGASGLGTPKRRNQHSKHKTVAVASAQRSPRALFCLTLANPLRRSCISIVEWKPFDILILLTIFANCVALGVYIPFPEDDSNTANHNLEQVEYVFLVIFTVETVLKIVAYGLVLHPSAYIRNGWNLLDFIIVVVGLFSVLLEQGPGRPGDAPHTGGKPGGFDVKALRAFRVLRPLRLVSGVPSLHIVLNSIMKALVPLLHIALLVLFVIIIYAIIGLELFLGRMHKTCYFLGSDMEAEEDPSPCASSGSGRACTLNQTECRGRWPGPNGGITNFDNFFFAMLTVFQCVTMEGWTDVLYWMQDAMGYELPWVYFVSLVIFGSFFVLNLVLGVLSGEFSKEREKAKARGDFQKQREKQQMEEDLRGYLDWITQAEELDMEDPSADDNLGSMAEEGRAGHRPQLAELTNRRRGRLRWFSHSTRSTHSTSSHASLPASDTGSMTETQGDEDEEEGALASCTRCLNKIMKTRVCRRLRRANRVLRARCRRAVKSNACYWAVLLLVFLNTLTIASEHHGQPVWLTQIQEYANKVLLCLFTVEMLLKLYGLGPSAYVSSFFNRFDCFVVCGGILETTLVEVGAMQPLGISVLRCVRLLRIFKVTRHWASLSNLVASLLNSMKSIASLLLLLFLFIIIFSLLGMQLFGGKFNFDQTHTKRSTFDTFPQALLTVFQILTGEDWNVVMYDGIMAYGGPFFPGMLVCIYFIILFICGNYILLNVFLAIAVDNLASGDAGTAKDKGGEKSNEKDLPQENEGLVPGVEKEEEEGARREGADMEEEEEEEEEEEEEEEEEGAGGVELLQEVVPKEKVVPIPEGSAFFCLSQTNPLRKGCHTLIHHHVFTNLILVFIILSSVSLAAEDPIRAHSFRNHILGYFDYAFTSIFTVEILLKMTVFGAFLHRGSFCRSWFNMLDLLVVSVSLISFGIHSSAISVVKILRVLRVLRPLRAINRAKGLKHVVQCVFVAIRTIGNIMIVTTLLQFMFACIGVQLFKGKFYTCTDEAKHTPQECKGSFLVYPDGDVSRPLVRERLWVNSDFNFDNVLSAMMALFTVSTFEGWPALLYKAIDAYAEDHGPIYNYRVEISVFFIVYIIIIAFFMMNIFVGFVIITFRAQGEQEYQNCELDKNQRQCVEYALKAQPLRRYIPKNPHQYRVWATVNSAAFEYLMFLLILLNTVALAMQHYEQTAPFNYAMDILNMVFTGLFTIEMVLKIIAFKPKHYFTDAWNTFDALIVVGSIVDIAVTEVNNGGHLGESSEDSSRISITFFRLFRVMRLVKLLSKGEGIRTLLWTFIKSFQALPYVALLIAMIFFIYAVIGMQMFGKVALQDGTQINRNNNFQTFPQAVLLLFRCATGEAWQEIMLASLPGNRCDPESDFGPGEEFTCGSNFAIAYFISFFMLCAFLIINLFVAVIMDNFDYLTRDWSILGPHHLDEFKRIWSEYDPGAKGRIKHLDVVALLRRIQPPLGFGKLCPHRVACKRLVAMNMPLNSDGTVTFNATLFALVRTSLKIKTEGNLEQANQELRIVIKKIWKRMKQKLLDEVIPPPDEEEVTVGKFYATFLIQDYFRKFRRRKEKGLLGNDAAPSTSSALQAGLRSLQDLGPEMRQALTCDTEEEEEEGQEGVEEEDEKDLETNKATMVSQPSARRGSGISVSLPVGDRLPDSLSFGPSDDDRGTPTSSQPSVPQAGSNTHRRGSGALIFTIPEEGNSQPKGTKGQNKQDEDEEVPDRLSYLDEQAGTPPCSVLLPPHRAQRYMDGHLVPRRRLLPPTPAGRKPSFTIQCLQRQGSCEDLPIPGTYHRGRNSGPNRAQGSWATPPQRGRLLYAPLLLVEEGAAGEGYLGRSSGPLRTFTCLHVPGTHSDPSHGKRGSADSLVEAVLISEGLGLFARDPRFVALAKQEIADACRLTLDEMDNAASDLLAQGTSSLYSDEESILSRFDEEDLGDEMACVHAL
# Target: Voltage-gated L-type calcium channel (Homo sapiens, UniProt Q13936+Q13698+Q01668+O60840)
# Experiment: Inhibition of Cav1.2 current measured using QPatch automatic path clamp system in CHO cells expressing Cav1.2, beta-2 and alpha-2/delta-1 subunits
# Format: functional, cell-based, Cricetulus griseus
# Design: ca sol conc 1.8 mM, temp Ambient
compound,measurement,value
CC(C)COCC(CN(Cc1ccccc1)c1ccccc1)N1CCCC1 (stereo unspecified) [BEPRIDIL],IC50,1000 nM
